By UniProt entry, the sequences of proteins in these tests, tags left out.
DNA repair protein RAD52 homolog (Homo sapiens), P43351, UniProt P43351, whole entry, looked up: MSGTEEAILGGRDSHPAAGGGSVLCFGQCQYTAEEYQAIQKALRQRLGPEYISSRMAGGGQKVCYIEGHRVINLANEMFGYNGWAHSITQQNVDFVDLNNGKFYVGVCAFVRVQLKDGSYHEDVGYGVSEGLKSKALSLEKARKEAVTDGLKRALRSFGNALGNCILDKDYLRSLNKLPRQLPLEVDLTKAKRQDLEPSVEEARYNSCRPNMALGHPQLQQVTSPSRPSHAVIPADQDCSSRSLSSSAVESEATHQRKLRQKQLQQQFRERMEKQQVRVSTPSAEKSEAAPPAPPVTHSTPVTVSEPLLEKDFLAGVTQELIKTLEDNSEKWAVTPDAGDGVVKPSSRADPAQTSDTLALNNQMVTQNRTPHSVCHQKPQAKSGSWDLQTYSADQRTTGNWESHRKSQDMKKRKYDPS

# Screening data: PubChem, Broad Institute
# Xi reactivation = activators of inactive X chromosome reactivation, primary screen, imaging, XiGFP fibroblasts, GFP high-content imaging, set 2 | XiGFP mouse fibroblasts, % GFP-positive cells imaging, 3 d; cells co-treated with 5-aza-dC sensitizer; scaled so ellipticine positive control = 100% | activation, % at 7.58 µM | 0.055% of 360,000 active;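 active = mean normalized replicate activation at least 10% and every replicate at or above 10%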
#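 System: XiGFP fibroblasts, SV40-immortalized. Medium: DMEM plus 5-aza-dC sensitizer. Doses: single point. Timing: 3 d treatment, 15 min room-temperature fixation. Control set: ellipticine 6 µM.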
# E-sel inducer = E-selectin induction in HUVECs, primary screen, imaging, HUVEC, immunofluorescence imaging, single point; normalized: neutral wells 0, TNF-alpha wells 100; P16581; activation, % at 7.58 µM; 0.37% of 260,000 active; AID 686992, 2013;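 active = mean E-selectin-positive cell signal at least 10% of the positive control, reached in at least 60% of replicates, without over 20% cell loss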
#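 assay system = HUVEC, human umbilical vein endothelial cells | input = 3,000 HUVEC seeded per well | medium = EGM-2 growth medium on 0.1% gelatin-coated wells | dosing = one compound dose added by pin transfer | signal = immunofluorescence imaging | read-out basis = % PE-positive cells | control set = TNF-alpha, DMSO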
# RAD54 inh = inhibitors of human RAD54 branch migration, primary screen, biochemical, fluorescence, single point; DNA repair and recombination protein RAD54-like (Homo sapiens), Q92698; RAD54 Holliday junction branch migration, FAM/BHQ fluorescence; inhibition, % at 10.4 µM; 0.14% of 360,000 active;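 active = mean normalized replicate activity at least 40 and at least half of replicates scoring 40 or more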;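 also: inhibitors cause a drop in the FAM fluorescence signal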
# Yeast UUG start-1 = yeast start codon fidelity modulation; actives 0.13% (n = 350,000); activity score, % at 18.7 µM; S. cerevisiae UUG-firefly luciferase reporter, luminescence/redox ratio;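 active = replicate mean at a twofold rise or more, about +100% in these data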;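 note: firefly luciferase made from a UUG start codon reports start codon fidelity; reporter light over untreated wells divided by growth signal over untreated wells; some hits fall short of that in this replicate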
# RAD52 anneal inh = RAD52 DNA annealing inhibitors, primary screen, biochemical, FRET, single point, set 2 | recombinant RAD52 DNA annealing, FRET fluorescence | DNA repair protein RAD52 homolog (Homo sapiens), P43351 | 0.46% of 360,000 active | AID 651710, 2012 | inhibition, % at 18.7 µM;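 active = every replicate showing at least 50% inhibition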
# DNA binding = DNA binding of candidate compounds, dose response, artefact control for RAD54 inhibitor project, biochemical, fluorescence polarization, cherry-pick; shares compounds with RAD54 inh; Acridine orange-DNA displacement, 20 min; AC50, µM (titrated, usually from 35 µM); 8% of 460 active;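 active = signal drop giving an AC50 within twice the top valid tested concentration of each sample, actives reach about 35 µM in these data; inactive = activity opposite to expected, plus the rest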;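 also: polarization loss reports compound binding to salmon sperm DNA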
# Yeast UUG start-2 = enhancers of UUG start codon usage in yeast, dose response, S. cerevisiae, UUG firefly luciferase, cherry-pick, set 2; shares compounds with Yeast UUG start-1; luminescence, 4 h; 100% means double the DMSO signal; activation, % at 38 µM; 540 tested, under 10 active;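 active = signal increase whose fitted curve reaches an absolute level of 40 at a concentration under 10 µM; inactive = activity opposite to the expected increase, or the rest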
# RAD52 DNA ctr = DNA-binding compounds via dye displacement, dose response, artefact control for RAD52 inhibitor project, biochemical, fluorescence polarization, cherry-pick; shares compounds with RAD52 anneal inh; Salmon sperm DNA/acridine orange FP displacement; AC50, µM; 8% of 1,000 active; AID 652128, 2013;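 active = fitted half-maximal concentration for signal loss at or below twice the highest dose tested, in every separate run, actives reach about 64 µM in these data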
# Numbers stand for hits; 0 = inactive; - = no result given. Compounds with a hit are over-represented: about 0.73% of the library has one in this group of screens.
SMILES,Xi reactivation,E-sel inducer,RAD54 inh,Yeast UUG start-1,RAD52 anneal inh,others
NC(N)=Nc1ccc2[nH]c3c(c2c1)C[C@@]1(O)[C@H]2Cc4ccc(O)c5c4[C@@]1(CCN2CC1CC1)[C@H]3O5,-,-,53.7,0,-,
CC(C)NC(=O)N1CC2C(c3ccccc3)C(C1)N2C (stereo unspecified),0,-,-,-,-,
CC=Cc1ccc2n(c1=O)C[C@@H]1[C@@H](CO)[C@H](C(=O)OC)[C@H]2N1S(=O)(=O)c1ccccc1C (mixture of isomers),0,0,0,-,56.1,
CC=Cc1ccc2n(c1=O)C[C@H]1[C@H](CO)[C@@H](C(=O)OC)[C@@H]2N1S(=O)(=O)c1ccccc1C (mixture of isomers),0,0,0,-,53.2,
CN(N)N=Nc1nc2c([nH]1)c(=O)n(C)c(=O)n2C,0,57.8,-,-,0,
S=C=Nc1cccc(C2(N3CCCCC3)CCCCC2)c1,0,0,0,0,84.2,
c1ccc(C2(N3CCCCC3)CCCCC2)cc1,-,-,0,0,0,
CN1CCN(c2cn[nH]c(=O)c2Cl)CC1,0,45.8,0,0,0,
COc1c2c(cc3c1OCO3)CCN(C)C2,0,0,0,0,0,
COc1cc2c(cc1O)C[C@H]1NCCc3cc4c(c-2c31)OCO4,0,0,0,0,89.0,
Cc1cccc(CN2CCCC(C(=O)c3ccc4c(c3)OCO4)C2)n1 (stereo unspecified),0,33.1,0,0,0,
O=C(c1cccc2ccccc12)C1CCCN(Cc2ccon2)C1 (stereo unspecified),26.6,-,0,0,0,
C/C=C/c1ccc(C2[C@@H]3CN(Cc4cccc(F)c4)C[C@H]2N3)cc1 (stereo partly specified),0,0,-,-,0,
C/C=C/c1ccc(C2[C@@H]3CN(Cc4cccnc4)C[C@H]2N3)cc1 (stereo partly specified),0,0,-,-,58.4,
O=C(Cc1ccccc1)N1CC2(C1)[C@H](c1ccccc1)[C@H](CO)N2Cc1cccc(F)c1,0,0,-,-,0,
C=CCN1[C@@H]2CN(C(=O)NC(C)C)C[C@H]1C2c1ccc(Br)cc1 (stereo partly specified),0,-,-,-,-,
Nc1c(Br)cc2c3c(cccc13)-c1ccccc1-2,27.4,0,-,-,0,
c1ccc2c(c1)-c1cccc3cccc-2c13,-,-,0,0,0,
COC(=O)[C@H]1[C@H](CO)[C@H]2Cn3c(cccc3=O)[C@@H]1N2C(=O)C1CCC1,-,-,0,0,0,
O=C(Cc1ccccc1)N1CC2(C1)[C@@H](c1ccccc1)[C@@H](CO)N2Cc1cccc(F)c1,0,0,-,-,0,
Cc1ccc(-c2nc3ccccc3c(=O)n2-c2cccc(O)c2)cc1,0,164.3,-,-,0,
Cc1nc2ccccc2c(=O)n1-c1cccc(O)c1,-,-,0,0,-,
O=C(O)[C@@H]1[C@@H](CO)[C@@H]2Cn3c(ccc(C4=CCCCC4)c3=O)[C@H]1N2CCc1ccccc1,0,0,-,-,-,
c1ccc2c(c1)[IH]c1ccccc1-2,0,0,51.9,151.3,0,
O=S1c2ccccc2-c2ccccc21,0,0,0,0,0,
SMILES,Xi reactivation,E-sel inducer,RAD54 inh,Yeast UUG start-1,RAD52 anneal inh,others
O=C(Cc1cccnc1)N1CCCCN2[C@@H](CO)[C@@H](c3ccc(/C=C/c4ccccc4)cc3)[C@@H]2C1,0,0,0,0,0,
COc1ccc2c(c1)[nH]c1c(C)nccc12,0,0,71.2,0,0,DNA binding=0
COC(=O)[C@H]1[C@H](CO)[C@H]2Cn3c(ccc(-c4ccccc4F)c3=O)[C@@H]1N2C(C)=O,0,0,0,-,0,
Cc1cc(N2CCN(C)CC2)nc2ccccc12,0,-,0,0,0,
CN1CCC(N(C)c2nc(-c3ccccc3)nc3ccccc23)CC1,-,-,67.1,0,0,DNA binding=0
CCN1CCN(c2ccc(N)c(C)c2)CC1,0,-,76.5,0,92.0,DNA binding=0;RAD52 DNA ctr=0
CCCN1[C@@H]2c3ccc(-c4ccccc4)c(=O)n3C[C@H]1[C@H](CO)[C@H]2C(=O)OC,0,0,0,-,0,
CC[n+]1c(/C=C/C=C/c2ccc(N(C)C)cc2)sc2ccccc21,0,-,0,99.6,0,Yeast UUG start-2=0
CC[n+]1c(/C=C/N(C)c2ccccc2)sc2ccc(Cl)cc21,-,-,0,0,-,
COC(=O)[C@@H]1[C@@H](CO)[C@@H]2Cn3c(ccc(C4=CCCCC4)c3=O)[C@H]1N2Cc1ccccc1OC,0,0,-,-,0,
O=C(c1ccccc1)c1cn(CC(=O)N2CCOCC2)c2ccccc12,-,-,0,0,-,Yeast UUG start-2=0
Cc1[nH]c2ccccc2c1C1=CCNCC1,-,-,0,0,64.6,RAD52 DNA ctr=0
Oc1ccc(-[n+]2c(-c3ccccc3)cc(-c3ccccc3)cc2-c2ccccc2)cc1,0,0,0,0,60.1,RAD52 DNA ctr=0
O=C([O-])c1ccc(-[n+]2c(-c3ccccc3)cc(-c3ccccc3)cc2-c2ccccc2)cc1,0,0,0,0,56.5,RAD52 DNA ctr=0
COc1ccc(-[n+]2c(-c3ccccc3)cc(-c3ccccc3)cc2-c2ccccc2)cc1,0,0,-,-,0,
CC(C)N1CCN(c2ccc(O)cc2)CC1,0,0,0,0,82.5,RAD52 DNA ctr=0
COc1ccc(C(C)=O)cc1CC(C(=O)c1ccc(C)cc1)N(C)C (stereo unspecified),0,-,0,0,0,
CCOc1ccc(C(C)=O)cc1Cn1ccsc1=N,0,0,0,0,63.9,RAD52 DNA ctr=0
COCC(=O)N1[C@@H]2c3ccc(C4=CCCC4)c(=O)n3C[C@H]1[C@H](CO)[C@H]2C(=O)OC,0,0,0,-,0,
CCOC(=O)c1c(C)n(Cc2ccccc2)c2ccc(OCC(O)CNC(C)(C)C)cc12 (stereo unspecified),0,-,0,0,51.7,RAD52 DNA ctr=0
CCOC(=O)c1c(C)n(Cc2ccccc2)c2ccc(OCC(O)Cn3nc(C)nc3C)cc12 (stereo unspecified),0,0,0,0,0,
CC(=O)N1[C@@H]2c3ccc(-c4cccc(C(=O)N(C)C)c4)c(=O)n3C[C@H]1[C@H](CO)[C@H]2C(=O)O,0,0,-,-,0,
NC(N)=N/N=C/c1cn(-c2ccccc2)nc1-c1cccs1,0,0,-,-,88.0,RAD52 DNA ctr=0
O=c1c2ccccc2nc(-c2cccs2)n1-c1ccccc1,-,-,0,0,-,
